These results are taken from patent publication US6653135B1, “Dynamic protein signature assay” (University of Maryland, priority 2000, dated 2003).

Like-named read-outs stand apart in the source and are kept apart here.

This data set concerns Mytilus edulis haemolymph cell lysosomes. Conditions: 80 ppb CuSO4, 24 hrs.

`O=S(=O)([O-])[O-].[Cu+2]` [CuSO4, copper sulfate]: the “Lysosomal Destabilization Ratio” value was 0.32±0.11. Besides, the “Lysosomal Destabilization Ratio” value (listed as copper sulfate) is on record as 0.32±0.11.
